Apparent affinities of Ab-14 variants for a coronavirus HR2 peptide

Reference: Li et al. 2023, doi:10.1038/s41467-023-39022-2. File: FLAb, binding data.

Target: peptide PDVDLGDISGINAS, taken from heptad repeat 2 (HR2) of SARS-CoV-2 spike.

Each scFv is VH, three GGGGS repeats, VL, as in the parent Ab-14, and differs from it in the CDRs of the light chain only.
VH: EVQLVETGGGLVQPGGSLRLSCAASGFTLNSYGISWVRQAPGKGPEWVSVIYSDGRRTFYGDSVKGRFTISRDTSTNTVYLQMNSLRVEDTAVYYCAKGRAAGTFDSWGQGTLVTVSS
VL: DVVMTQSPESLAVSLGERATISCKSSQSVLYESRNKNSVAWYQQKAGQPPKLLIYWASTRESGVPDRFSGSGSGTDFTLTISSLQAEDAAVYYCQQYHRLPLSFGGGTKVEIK

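The starting antibody came from a phage panning campaign against this peptide. Designed CDR sequences, proposed from the first random library and measured here. Their group label is 14L_Ctrl (Ctrl: baseline library sampled from a position-specific scoring matrix, with some repeated check sequences). AlphaSeq pools MATa yeast showing the antibodies with MATalpha yeast showing the peptide. Pairs that bind mate more often; barcode pairs of the diploids are counted by sequencing. A regression on co-assayed BCL2-family reference pairs converts the normalised counts of each replicate to an apparent Kd. The assay was run in six technical replicates.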

Each variant's VL is given in full.
Affinities are written as log10 Kd with Kd in nM; a lower number is a better binder.
A mean of the replicates is given; it leaves out those without a signal.
"nd" marks a missing value. The strain was present, yet no cells mated with the target were sequenced in that replicate, which points to weak or no binding.
The range of this assay differs from that of the first round, and the authors advise against merging the two.
In the paper, a design with two or fewer of six values counts as a poor binder.
As a blank, each scFv also met three strains without target: over all light chain designs, 4% of these pairings were detected, typically at 2.64 and seldom below 1.59. The control count says in how many pairings with the empty strains this scFv gave a signal.
The parent sequence was in this pool as ten entries: three were never detected, three once, and four in most replicates, with averages from 0.34 to 2.37.

Variant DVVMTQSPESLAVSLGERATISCKSSQSVLYESRYKNSVAWYQQKAGQPPKLLIYWASKRESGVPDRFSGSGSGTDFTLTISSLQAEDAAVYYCQQYHRLPLSFGGGTKVEIK showed nd, nd, nd, nd, nd, nd (controls 0 of 18).
Variant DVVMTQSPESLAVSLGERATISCKSSQSVLMSSRNKNSVAWYQQKAGQPPKLLIYWASTRESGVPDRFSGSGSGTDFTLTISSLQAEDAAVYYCQQYHRLPLSFGGGTKVEIK showed 1.26, 1.51, nd, 2.34, 1.93, 2.80 (mean 1.97; controls 1 of 18).
Variant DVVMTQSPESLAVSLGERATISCKVSQSVEYERTFKNSVAWYQQKAGQPPKLLIYWASTRESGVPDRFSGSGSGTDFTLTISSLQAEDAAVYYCQQYHRLPLSFGGGTKVEIK showed nd, 0.43, 2.00, 1.42, 1.29, 2.26 (mean 1.48; controls 0 of 18).
Variant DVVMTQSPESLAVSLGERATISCKSSQSVLTEGRNKNSVAWYQQKAGQPPKLLIYQASNRESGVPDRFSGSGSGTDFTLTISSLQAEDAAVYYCQQYHRLPLSFGGGTKVEIK showed 0.34, 0.65, 0.41, 0.50, 0.63, 0.55 (mean 0.51; controls 0 of 18).
Variant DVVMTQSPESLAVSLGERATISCKSSQSLLYESRNANSVAWYQQKAGQPPKLLIYWSSTREVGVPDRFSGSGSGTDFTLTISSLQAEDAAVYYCQQYHWLPLSFGGGTKVEIK showed nd, nd, nd, nd, 1.63, nd (controls 0 of 18).
Variant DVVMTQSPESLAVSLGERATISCKSSQSVLYESRNKGSVAWYQQKAGQPPKLLIYWASTRESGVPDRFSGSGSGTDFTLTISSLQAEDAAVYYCQQYHRLPLSFGGGTKVEIK showed nd, nd, nd, nd, nd, nd (controls 0 of 18).
Variant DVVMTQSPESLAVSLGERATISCKSSQSGLYESPNKNSVAWYQQKAGQPPKLLIYRASTRESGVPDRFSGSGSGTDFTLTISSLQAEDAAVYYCQQYHHLPLSFGGGTKVEIK showed 1.07, 0.98, 0.67, 1.00, 0.95, 1.45 (mean 1.02; controls 2 of 18).
Variant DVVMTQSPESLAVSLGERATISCKSSQSVYMESRNHNSVAWYQQKAGQPPKLLIYWASTREGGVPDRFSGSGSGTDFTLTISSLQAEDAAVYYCQQYHRLPLSFGGGTKVEIK showed nd, nd, 2.63, nd, nd, nd (controls 0 of 18).
Variant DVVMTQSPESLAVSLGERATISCKSSQSVLYESVWKNSVAWYQQKAGQPPKLLIYWASTRESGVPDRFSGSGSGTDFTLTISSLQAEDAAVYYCQQYHRLPLSFGGGTKVEIK showed 1.93, 2.48, 2.35, 2.22, 2.09, 2.09 (mean 2.19; controls 1 of 18).
Variant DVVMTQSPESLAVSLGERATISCKSSQSVLGESGTKNSVAWYQQKAGQPPKLLIYWASTRESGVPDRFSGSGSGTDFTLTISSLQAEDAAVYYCQDYTRLPLSFGGGTKVEIK showed 2.22, 1.29, 1.66, 1.81, 1.23, 1.46 (mean 1.61; controls 2 of 18).
Variant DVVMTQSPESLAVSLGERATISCKSSQSVLYELRNKNSVAWYQQKAGQPPKLLIYWASTRESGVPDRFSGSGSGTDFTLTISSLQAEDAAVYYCQQYHRLPLSFGGGTKVEIK showed nd, nd, nd, nd, nd, nd (controls 0 of 18).
Variant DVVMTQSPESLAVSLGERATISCKSSQSVLYESRNLNSVAWYQQKAGQPPKLLIYWASTREKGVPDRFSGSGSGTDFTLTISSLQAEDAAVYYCQQYHRLPLSFGGGTKVEIK showed nd, nd, nd, 2.77, 1.50, 1.44 (mean 1.90; controls 0 of 18).
Variant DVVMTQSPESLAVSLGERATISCKSSQMVLYESRNKNSVAWYQQKAGQPPKLLIYWLSTRPSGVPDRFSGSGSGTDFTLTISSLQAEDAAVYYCQQYQRLPLSFGGGTKVEIK showed nd, 2.33, nd, nd, nd, 2.03 (mean 2.18; controls 2 of 18).
Variant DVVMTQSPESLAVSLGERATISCKSSQSWLSEERNKNSVAWYQQKAGQPPKLLIYWAYTRESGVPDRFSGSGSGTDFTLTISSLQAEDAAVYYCQQYHRLPLSFGGGTKVEIK showed nd, nd, 1.90, nd, nd, nd (controls 0 of 18).
Variant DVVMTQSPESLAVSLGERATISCKSSQSVLYESRNKQSVAWYQQKAGQPPKLLIYWASTRESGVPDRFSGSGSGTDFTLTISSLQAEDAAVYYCQQYLRLPLSFGGGTKVEIK showed nd, 2.55, 1.82, 3.37, nd, nd (mean 2.58; controls 1 of 18).